Antibody variant affinities, Ab-14 heavy chain, assay 1

The measurements come from Engelhart et al. 2022 (doi:10.1038/s41597-022-01779-4) through the FLAb antibody collection.

Target peptide (SARS-CoV-2 spike, HR2 region): PDVDLGDISGINAS

The variants keep the light chain, the linker and the frameworks of Ab-14 (scFv order VH, three GGGGS repeats, VL).
VH: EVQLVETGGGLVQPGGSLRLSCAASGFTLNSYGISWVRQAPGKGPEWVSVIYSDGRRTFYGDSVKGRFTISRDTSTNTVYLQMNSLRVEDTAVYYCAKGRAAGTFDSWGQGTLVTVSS
VL: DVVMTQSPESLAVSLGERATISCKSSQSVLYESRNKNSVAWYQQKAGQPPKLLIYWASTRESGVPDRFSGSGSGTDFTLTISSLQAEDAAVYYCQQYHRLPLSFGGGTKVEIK

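The starting antibody came from a phage panning campaign against this peptide. Variants in AAYL49 differ from the parent at up to three CDR positions; double and triple changes were sampled at random. In AlphaSeq, yeast of one mating type display the scFv and yeast of the other type display the target. The frequency of each diploid, read from paired DNA barcodes, reflects how well the two displayed proteins bind. Each replicate has its own calibration line, from reference interactions of the BCL2 family. Each pool was mated in three replicate cultures.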

The whole VH of each variant is written out. Every variant below is changed at R100 of the VH (sequential numbering). Kd is apparent (estimated from mating counts) and averaged on the log scale over replicates with a signal. Smaller is tighter. Where no diploid with the target was found in any replicate, the entry reads "nd": below detection, most likely a poor binder, though not proof of it. As a blank, each scFv also met three strains without target: over library AAYL49, 15% of these pairings were detected, typically at 11 µM and seldom below 680 nM.

With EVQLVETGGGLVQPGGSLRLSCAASGLTLNSYGISWVRQAPGKGPEWVSVIYSDGRRTFYGDSVRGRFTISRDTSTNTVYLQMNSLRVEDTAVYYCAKGEAAGTFDSWGQGTLVTVSS the result was 3.7 nM (3 of 3 replicates). With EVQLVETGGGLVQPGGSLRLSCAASGFTLNSYGISWVRQAPGKGPEWVSVIYSDGIRTFYGLSVKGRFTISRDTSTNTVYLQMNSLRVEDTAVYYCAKGQAAGTFDSWGQGTLVTVSS the result was 45 µM (3 of 3 replicates). For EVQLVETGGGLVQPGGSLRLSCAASGFTLNFYGISWVRQAPGKGPEWVSVIYSDGRRTFYGDSVKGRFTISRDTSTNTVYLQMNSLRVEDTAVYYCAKGGSAGTFDSWGQGTLVTVSS, the assay gave 1.8 µM (3 of 3 replicates). The variant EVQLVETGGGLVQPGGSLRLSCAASGFRLNSYGISWVRQAPGKGPEWVSVIYSDGRRDFYGDSVKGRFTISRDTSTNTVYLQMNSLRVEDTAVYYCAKGEAAGTFDSWGQGTLVTVSS showed 72 nM (3 of 3 replicates). For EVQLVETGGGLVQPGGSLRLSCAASGFTLNSYQISWVRQAPGKGPEWVSVNYSDGRRTFYGDSVKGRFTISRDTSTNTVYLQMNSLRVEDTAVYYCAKGTAAGTFDSWGQGTLVTVSS, the assay gave 5.8 µM (1 of 3 replicates). With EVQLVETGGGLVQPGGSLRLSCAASGFTLNSYGISWVRQAPGKGPEWVSVIYSCGRRTFYGDEVKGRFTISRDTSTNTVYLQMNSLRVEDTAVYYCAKGHAAGTFDSWGQGTLVTVSS the result was nd (0 of 3 replicates).

The variant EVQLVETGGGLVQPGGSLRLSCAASGFTLNSYGIPWVRQAPGKGPEWVSVIYSDGRRTFYGDSVKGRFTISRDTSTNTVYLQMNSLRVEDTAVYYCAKYNAAGTFDSWGQGTLVTVSS gave nd (0 of 3 replicates). The variant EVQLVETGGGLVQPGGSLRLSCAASGFTLNSYGISWVRQAPGKGPEWVSVIYSDGCCTFYGDSVKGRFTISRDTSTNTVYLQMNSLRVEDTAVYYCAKGMAAGTFDSWGQGTLVTVSS showed nd (0 of 3 replicates). The variant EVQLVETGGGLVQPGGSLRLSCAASGFTLNSYGKSWVRQAPGKGPEWVSVIYSDGRRTFYGDSVKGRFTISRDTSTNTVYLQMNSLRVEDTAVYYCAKGTAAGHFDSWGQGTLVTVSS gave 46 µM (1 of 3 replicates). The variant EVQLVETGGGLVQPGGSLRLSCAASGFTLNSYGISWVRQAPGKGPEWVSVIYSDGRRTFYGDSVEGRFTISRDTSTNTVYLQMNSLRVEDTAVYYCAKGIAAGTLDSWGQGTLVTVSS showed nd (0 of 3 replicates). The variant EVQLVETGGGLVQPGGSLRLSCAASGFDLNSYGISWVRQAPGKGPEWVSVIYSDGRDTFYGDSVKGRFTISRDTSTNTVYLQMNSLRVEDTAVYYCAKGIAAGTFDSWGQGTLVTVSS showed 34 µM (1 of 3 replicates). With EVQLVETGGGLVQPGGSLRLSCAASGFTLNSYGISWVRQAPGKGPEWVSVIYSHGRRTFYGDSVKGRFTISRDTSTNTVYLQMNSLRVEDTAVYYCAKMWAAGTFDSWGQGTLVTVSS the result was nd (0 of 3 replicates).

The variant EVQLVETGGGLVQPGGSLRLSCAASGFTLNSYGISWVRQAPGKGPEWVSVIYSDGRRTFYGGSVVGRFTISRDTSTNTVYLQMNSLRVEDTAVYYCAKGIAAGTFDSWGQGTLVTVSS gave nd (0 of 3 replicates). The variant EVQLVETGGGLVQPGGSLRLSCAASGFTLNSYGISWVRQAPGKGPEWVSVIYSDGARTFYGDSVKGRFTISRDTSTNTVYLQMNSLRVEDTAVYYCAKGWAAGTFDSWGQGTLVTVSS showed 15 nM (3 of 3 replicates). The variant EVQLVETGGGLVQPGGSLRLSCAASGFTLNSYIISWVRQAPGKGPEWVSVIYSDGRRTFYGDSVDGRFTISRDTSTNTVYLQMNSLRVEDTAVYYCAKGKAAGTFDSWGQGTLVTVSS showed 5.9 µM (2 of 3 replicates). The variant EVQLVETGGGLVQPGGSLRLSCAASGFTLNSYGISWVRQAPGKGPEWVSVIYSDGRMTFYGDSVKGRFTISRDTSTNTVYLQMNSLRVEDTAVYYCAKGSAAGTFDSWGQGTLVTVSS gave nd (0 of 3 replicates). With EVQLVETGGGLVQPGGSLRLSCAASGFTLNSYGISWVRQAPGKGPEWVSVIYSDGRRSMYGDSVKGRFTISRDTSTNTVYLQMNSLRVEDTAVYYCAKGYAAGTFDSWGQGTLVTVSS the result was 150 nM (3 of 3 replicates). The variant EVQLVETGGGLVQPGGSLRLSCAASGFTLNSYGISWVRQAPGKGPEWVSVIYSDGRRTFYGDSVKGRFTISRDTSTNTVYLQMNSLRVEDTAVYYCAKGVAAGTFDSWGQGTLVTVSS showed nd (0 of 3 replicates).

The variant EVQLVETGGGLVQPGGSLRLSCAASGFCLNSYGICWVRQAPGKGPEWVSVIYSDGRRTFYGDSVKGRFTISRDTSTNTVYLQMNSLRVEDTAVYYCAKGPAAGTFDSWGQGTLVTVSS showed nd (0 of 3 replicates).

The 2 strongest on average among those seen in every replicate, once more:

VH,Kd,replicates with signal
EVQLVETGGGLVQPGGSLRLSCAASGLTLNSYGISWVRQAPGKGPEWVSVIYSDGRRTFYGDSVRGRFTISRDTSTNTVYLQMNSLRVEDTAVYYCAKGEAAGTFDSWGQGTLVTVSS,3.7 nM,3/3
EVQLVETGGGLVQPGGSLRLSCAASGFTLNSYGISWVRQAPGKGPEWVSVIYSDGARTFYGDSVKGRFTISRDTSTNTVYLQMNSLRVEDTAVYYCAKGWAAGTFDSWGQGTLVTVSS,15 nM,3/3